Assays:
[1] = system: LEF/TCF transcription factor reporter (TOPFlash); assay: TOPFlash reporter assay in HEK293 cells; type: cell-based; settings: Homo sapiens, HEK293, read-out: TopFlash assay: IC50
Description: (§1) To obtain a Frizzled1-GFP stable cell line (Fzd1GFP-U2OS), U2OS cells were transfected with pCS2ratFrizzled1-GFP and pLKO.1 (10:1 ratio by weight), using the Nucleofection transfection protocol from Amaxa, and stable receptor expressing clones were selected using 1.5 μg/mL puromycin in the culture medium. For generating TOPFlash stable cell lines, HEK293 cells were transfected with p8xTOPFlash, the Renilla luciferase plasmid, and pLKO.1 at a ratio by weight of 10:3:1 and stable clones selected using 1 μg/mL puromycin in the growth medium. pLKO.1 was used to confer puromycin resistance to the stable clones.
For the TOPFlash Luciferase assay the TOPFlash stable cells were seeded in 150 μL growing medium/well in 96-well plates at 100% confluency. Fifty microliters of conditioned medium containing the chemical compounds to be tested or DMSO were added to each well. […] Thirty microliters of cell lysate were used for measuring luciferase activity in a 96-well plate reader (FluoStar Optima, BMG Labtech, Chicago, Ill.).
LEF/TCF transcription factor reporter (TOPFlash) assay is a general readout for canonical Wnt signaling pathways. […]
The average TOPFlash reporter activity of Wnt3A plus DMSO treatment was set as 100%, and the relative reporter activity of Wnt3A plus the indicated concentration of niclosmide was calculated and plotted. […]

Chains of the proteins cited; added tags and fusions are not shown. Residues count along the entry.
UniProt Q08463, 69-641: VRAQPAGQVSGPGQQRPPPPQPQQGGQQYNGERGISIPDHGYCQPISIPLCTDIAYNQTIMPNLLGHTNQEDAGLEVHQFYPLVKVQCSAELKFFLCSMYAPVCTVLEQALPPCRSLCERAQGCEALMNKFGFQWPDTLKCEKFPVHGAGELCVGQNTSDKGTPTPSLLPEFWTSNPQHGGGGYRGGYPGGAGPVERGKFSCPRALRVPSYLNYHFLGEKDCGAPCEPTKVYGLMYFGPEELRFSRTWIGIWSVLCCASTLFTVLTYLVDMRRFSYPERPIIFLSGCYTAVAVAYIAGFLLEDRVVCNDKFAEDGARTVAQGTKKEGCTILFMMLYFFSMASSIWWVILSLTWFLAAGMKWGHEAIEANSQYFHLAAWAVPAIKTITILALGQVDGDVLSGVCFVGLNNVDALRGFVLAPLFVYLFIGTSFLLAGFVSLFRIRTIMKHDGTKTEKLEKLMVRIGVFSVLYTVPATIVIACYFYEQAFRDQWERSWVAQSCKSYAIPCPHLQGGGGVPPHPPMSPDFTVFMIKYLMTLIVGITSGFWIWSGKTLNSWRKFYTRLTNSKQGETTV

Frizzled1-GFP = Frizzled1-GFP (Rattus norvegicus, UniProt Q08463); assay: Image-based Frizzled1-GFP internalization assay (primary screening assay) in Fzd1GFP-U2OS cells; type: cell-based
Description: as §1
The plates were incubated overnight at 37° C. in 5% CO2. […]
To measure the number of the internalized vesicles per cell, cytosol was carefully traced to exclude cell membrane. […] The number of internalized vesicles per cell was counted by the Metamorph software. More than 30 cells per sample were analyzed to obtain statistical significance. […]
To determine the time-course of internalization for Frizzled1-GFP receptors, the accumulation of cytosolic puncta/vesicles was measured (FIG. 4A-4E). Internalization was assessed by counting the number of Frizzled1-GFP containing vesicles in the cytosol using the computer program Metamorph, and the results are presented in the graph for the given times (0 hr, n=51 cells; 1 hr, n=69; 2 hr, n=32; 4 hr, n=55, and 6 hr, n=61). […]

**Q.** For O=C(Nc1ccccc1)c1ccccc1 [Compound 1-5, benzanilide], which IC50 [1] is on record?
**A.** > 12.5 µM

**Q.** What about the “Primary assay at 12.5 μM” value (Frizzled1-GFP) of the same compound?
**A.** I
